Results from publication PMC11241722.

The chains behind the UniProt entries cited, without tags or fusion partners. Residues count along the entry.
UniProt P23229, 24-1130, chain 1 of 2: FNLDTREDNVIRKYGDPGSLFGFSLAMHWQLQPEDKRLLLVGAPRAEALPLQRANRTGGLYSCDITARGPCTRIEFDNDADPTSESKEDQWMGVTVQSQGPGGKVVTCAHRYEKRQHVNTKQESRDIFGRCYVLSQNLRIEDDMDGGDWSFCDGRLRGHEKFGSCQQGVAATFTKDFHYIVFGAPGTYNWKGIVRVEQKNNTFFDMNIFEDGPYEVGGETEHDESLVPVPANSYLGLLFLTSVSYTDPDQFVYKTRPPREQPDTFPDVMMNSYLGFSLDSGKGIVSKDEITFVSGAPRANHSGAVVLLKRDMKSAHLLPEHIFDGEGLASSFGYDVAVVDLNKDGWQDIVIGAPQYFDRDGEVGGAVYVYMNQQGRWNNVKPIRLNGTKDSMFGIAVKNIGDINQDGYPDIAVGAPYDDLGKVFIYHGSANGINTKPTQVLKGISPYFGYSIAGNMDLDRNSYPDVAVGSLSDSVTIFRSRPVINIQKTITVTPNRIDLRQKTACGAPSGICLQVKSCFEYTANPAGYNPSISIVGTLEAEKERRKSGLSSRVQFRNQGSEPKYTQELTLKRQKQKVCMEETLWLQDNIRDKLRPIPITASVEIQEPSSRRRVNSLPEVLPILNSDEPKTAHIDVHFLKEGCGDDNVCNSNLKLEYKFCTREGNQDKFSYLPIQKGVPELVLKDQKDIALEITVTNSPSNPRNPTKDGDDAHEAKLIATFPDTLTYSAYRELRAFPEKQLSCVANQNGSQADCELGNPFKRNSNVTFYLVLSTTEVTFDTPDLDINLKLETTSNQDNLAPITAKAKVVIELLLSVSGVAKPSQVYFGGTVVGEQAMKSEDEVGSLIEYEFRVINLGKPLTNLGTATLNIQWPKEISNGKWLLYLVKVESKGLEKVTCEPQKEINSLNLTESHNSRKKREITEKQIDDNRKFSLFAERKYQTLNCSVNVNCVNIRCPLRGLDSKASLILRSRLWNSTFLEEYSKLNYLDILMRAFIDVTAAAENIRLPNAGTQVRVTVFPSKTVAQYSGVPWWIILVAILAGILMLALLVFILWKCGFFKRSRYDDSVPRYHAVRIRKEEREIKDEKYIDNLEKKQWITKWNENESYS

Biological target: Recombinant Human Integrin α6β1 protein (Flag & His Tag) (human) (UniProt P23229)
Assay: MST; 50 nM RED-tris-NTA-labelled His-tagged Integrin α6β1 mixed 1:1 (10 μL + 10 μL) with serially diluted unlabelled Netrin-1 (0.03 pM to 1.2 μM, 16 tubes); PBS with 0.05% Tween-20; 10 min at room temperature; Monolith NT.115; Kd fit model; three independent dilution series

Recombinant Human Netrin-1 protein (from UniProt O95631 25-604) (ligand)
Kd: 19.9 µM
